Only a part of the results on these compounds is given; other tests are left out.

Amino acid sequences for entries named in this document (tags omitted). A change or cut given only in a name is not applied to a line headed by its entry. Residues count along the entry.
UniProt Q03181, 211-439 limits assumed: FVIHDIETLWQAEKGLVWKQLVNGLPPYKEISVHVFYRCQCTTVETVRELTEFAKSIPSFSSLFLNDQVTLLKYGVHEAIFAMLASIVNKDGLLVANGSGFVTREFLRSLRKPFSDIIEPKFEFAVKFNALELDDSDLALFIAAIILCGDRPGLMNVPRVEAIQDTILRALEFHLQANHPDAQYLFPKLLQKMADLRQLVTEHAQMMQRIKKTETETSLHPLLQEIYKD
UniProt Q07869, 239-466 limits assumed: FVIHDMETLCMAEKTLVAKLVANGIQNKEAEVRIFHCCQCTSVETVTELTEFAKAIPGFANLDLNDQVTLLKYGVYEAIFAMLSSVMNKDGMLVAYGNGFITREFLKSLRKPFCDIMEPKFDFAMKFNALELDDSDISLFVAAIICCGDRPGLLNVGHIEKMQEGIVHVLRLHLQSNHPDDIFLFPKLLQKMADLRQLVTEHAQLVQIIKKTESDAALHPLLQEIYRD
UniProt P37231, 238-503 limits assumed: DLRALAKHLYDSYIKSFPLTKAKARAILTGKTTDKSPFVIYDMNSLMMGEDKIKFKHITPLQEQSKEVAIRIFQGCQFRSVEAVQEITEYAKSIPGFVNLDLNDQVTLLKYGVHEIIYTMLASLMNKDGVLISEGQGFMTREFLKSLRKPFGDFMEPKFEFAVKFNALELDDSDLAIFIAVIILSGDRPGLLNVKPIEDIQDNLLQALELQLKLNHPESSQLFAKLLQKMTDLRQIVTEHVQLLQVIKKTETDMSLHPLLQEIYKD

Test [1] concerns the target hPPARδ (LBD) (Homo sapiens, UniProt Q03181). Briefly: GAL4-hPPARδ (LBD) luciferase reporter transactivation in CV-1 cells. As to conditions: read-out: PPAR activities EC50 PPARδ, about 40 hours, relative to GW-501516 as 100%. On the technique in general: Reporter assays use an easily measured gene product as a stand-in for the process of interest.
Test [2] deals with hPPARα (LBD) (Homo sapiens, UniProt Q07869). Briefly: GAL4-hPPARα (LBD) luciferase reporter transactivation in CV-1 cells. The note with it: read-out: PPAR activities EC50 PPARα, about 40 hours, relative to GW-590735 as 100%.
The target of test [3] is hPPARγ (LBD) (Homo sapiens, UniProt P37231). Briefly: GAL4-hPPARγ (LBD) luciferase reporter transactivation in CV-1 cells. The note with it: read-out: PPAR activities EC50 PPARγ, about 40 hours, relative to Rosiglitazone as 100%.

One may read the EC50 as the concentration that produces a half-maximal response. Consider `CCc1cc(COc2ccc(Cc3nc4ccccc4n3CCN3CCCC3)cc2)ccc1CCC(=O)O`, for which the results for the EC50 in test [1], in test [2] and in test [3] were 21 µM, 1.06 µM and 6.59 µM, respectively.
Taken in the same sequence, the figures for `CCc1cc(COc2ccccc2Cc2nc3cc(Br)ccc3n2CCN2CCCC2)ccc1CCC(=O)O` were 0.66 µM, 0.123 µM and 4.37 µM.
Taken in the same sequence, the figures for `CCc1cc(COc2ccccc2Cc2nc3ccccc3n2CCN2CCCC2)ccc1CCC(=O)O` were 4.77 µM, 0.0936 µM and 9.2 µM.

The record behind these values is US12522569B2, “Substituted benzimidazole derivative and use thereof” (Chengdu FANXI Biopharma Co., Ltd., priority 2020, dated 2026).
